{"source": "paper PMC3236198", "biological_target": "T1, Single stranded DNA binding protein from Escherichia coli (EcoSSB) (Escherichia coli), P0AGE0", "T1 chain": "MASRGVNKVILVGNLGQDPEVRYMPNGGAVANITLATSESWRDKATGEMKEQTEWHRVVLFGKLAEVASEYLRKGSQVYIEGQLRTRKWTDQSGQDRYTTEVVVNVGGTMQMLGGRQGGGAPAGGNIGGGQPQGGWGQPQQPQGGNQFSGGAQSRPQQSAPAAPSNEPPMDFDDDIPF", "assay": "SEC; Superose 6HR 10/30, 20 mM Tris.HCl pH 8.0, 500 mM NaCl, 0.1 mM Na2EDTA; 10–200 µg of SSB loaded; oligomeric status from a plot of Ve/Vo versus log of molecular size markers", "details": "remark: other sources report otherwise", "data": [{"binder": "Single stranded DNA binding protein from Escherichia coli (EcoSSB), P0AGE0 1-178 (natural protein) MASRGVNKVILVGNLGQDPEVRYMPNGGAVANITLATSESWRDKATGEMKEQTEWHRVVLFGKLAEVASEYLRKGSQVYIEGQLRTRKWTDQSGQDRYTTEVVVNVGGTMQMLGGRQGGGAPAGGNIGGGQPQGGWGQPQQPQGGNQFSGGAQSRPQQSAPAAPSNEPPMDFDDDIPF", "values": [{"measurement": "stoichiometry N", "result": 4}]}]}
